Earlier results as cited in patent US20070264702A1 (priority 2003, published 2007).

Conditions: cited from earlier work

salicylate
therapeutic doses measured in plasma: higher than 4.6 mM
